From US20140100156A1 (SANOFI, priority 2012, published 2014)

Sequences of proteins named here, by UniProt entry; tags and fusion partners are left off. Residues count along the entry.
UniProt P43220, 24-463: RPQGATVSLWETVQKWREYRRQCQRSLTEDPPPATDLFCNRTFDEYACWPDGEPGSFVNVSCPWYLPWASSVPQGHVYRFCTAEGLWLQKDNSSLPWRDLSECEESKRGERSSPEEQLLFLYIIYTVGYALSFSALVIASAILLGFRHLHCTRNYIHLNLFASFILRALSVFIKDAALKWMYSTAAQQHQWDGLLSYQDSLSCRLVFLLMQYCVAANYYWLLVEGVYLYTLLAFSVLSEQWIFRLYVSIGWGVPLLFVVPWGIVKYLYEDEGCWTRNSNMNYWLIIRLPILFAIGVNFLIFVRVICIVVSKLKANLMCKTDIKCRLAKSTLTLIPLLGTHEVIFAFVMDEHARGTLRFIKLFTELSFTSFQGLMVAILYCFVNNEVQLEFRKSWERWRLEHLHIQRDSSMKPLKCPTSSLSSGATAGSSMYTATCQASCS
UniProt P47871, 26-477: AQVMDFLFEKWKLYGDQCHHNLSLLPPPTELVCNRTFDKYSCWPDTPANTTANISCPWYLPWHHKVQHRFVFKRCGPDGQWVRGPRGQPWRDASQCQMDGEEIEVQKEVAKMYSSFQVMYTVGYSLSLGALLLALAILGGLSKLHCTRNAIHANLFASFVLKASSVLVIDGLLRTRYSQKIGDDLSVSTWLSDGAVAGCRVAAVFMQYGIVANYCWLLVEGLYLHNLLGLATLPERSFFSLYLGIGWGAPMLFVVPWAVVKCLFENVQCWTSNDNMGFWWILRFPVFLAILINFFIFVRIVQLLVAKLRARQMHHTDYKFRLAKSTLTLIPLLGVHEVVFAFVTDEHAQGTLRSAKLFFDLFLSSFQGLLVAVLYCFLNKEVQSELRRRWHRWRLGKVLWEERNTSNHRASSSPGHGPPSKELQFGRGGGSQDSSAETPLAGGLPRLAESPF

Legend:
human GLP-1 receptor = target: T1, human GLP-1 receptor (Homo sapiens, UniProt P43220); experiment: cAMP response (HTRF) of HEK-293 cells stably expressing human GLP-1 receptor; assay type: cell-based; details: read-out: EC50 hGLP-1R
T1 construct: expressed in transfected cells; host or cells: HEK-293

in vivo = experiment: in vivo; set-up: species or system mice; details: mouse, sc, 1 mg/kg
Experimental: Mice were dosed 1 mg/kg subcutaneously (s.c.). The mice were sacrificed and blood samples were collected after 0.25, 1, 2, 4, 8, 16 and 24 hours post application. Plasma samples were analysed after protein precipitation via liquid chromatography mass spectrometry (LC/MS). PK parameters and half-life were calculated using WinonLin Version 5.2.1 (non-compartment model).
Pharmacokinetic profiles were determined as described in Methods.

physchem = assay type: physicochemical
Experimental: Prior to the testing of solubility and stability of a peptide batch, its content was determined. Therefore, two parameters were investigated, its purity (HPLC-UV) and the amount of salt load of the batch (ion chromatography). Since synthesized peptides contain primarily trifluoroacetate anions, only anion chromatography was performed.
. Therefore, solutions from solid samples were prepared in different buffer systems with a concentration of 1.0 mg/mL compound based on the previously determined content. HPLC-UV was performed after 2 h of gentle agitation from the supernatant, which was obtained by 20 min of centrifugation at 4000 rpm.
This analysis also served as starting point (t0) for the stability testing.
Instrument: Agilent 1100, column: X-Bridge C18 3.5 μm 2.1×150 mm (Waters), eluent: A: H20+500 ppm TFA/B: Methanol, flow: 0.55 mL/min, gradient: 0-5 min: 10-60% B; 5-15 min: 60-99% B; detection: 214 nm.

human glucagon receptor = target: T2, human glucagon receptor (Homo sapiens, UniProt P47871); experiment: cAMP response (HTRF) of HEK-293 cells stably expressing human glucagon receptor; assay type: cell-based; details: read-out: EC50 hGlucagon-R
T2 construct: expressed in transfected cells; host or cells: HEK-293

[1] = Table 8, comparison testing of position 14

| Structure (SMILES) | EC50 (human GLP-1 receptor; Table 5, cAMP, HEK-293) [pM] | EC50 (human GLP-1 receptor; [1]) [pM] | Cmax (in vivo) [ng/mL] | half-life (in vivo) [h] | solubility at 2 h (physchem; pH 4.5) [µg/mL] | solubility at 2 h (physchem; pH 7.4) [µg/mL] | EC50 (human glucagon receptor; Table 5, cAMP, HEK-293) [pM] | EC50 (human glucagon receptor; [1]) [pM] |
| --- | --- | --- | --- | --- | --- | --- | --- | --- |
| CCCCCCCCCCCCCCCC(=O)N[C@@H](CCC(=O)NCCCC[C@H](NC(=O)[C@H](CCC(N)=O)NC(=O)[C@H](CCCCN)NC(=O)[C@H](CO)NC(=O)[C@H](CC(C)C)NC(=O)[C@H](CC(=O)O)NC(=O)[C@H](CO)NC(=O)[C@@H](NC(=O)[C@H](Cc1ccccc1)NC(=O)[C@@H](NC(=O)CNC(=O)[C@H](CCC(N)=O)NC(=O)[C@@H](CO)NC(=O)[C@@H](N)Cc1c[nH]cn1)[C@@H](C)O)[C@@H](C)O)C(=O)N[C@@H](CCC(=O)O)C(=O)N[C@@H](CO)C(=O)N[C@@H](CCCNC(=N)N)C(=O)N[C@@H](CCCNC(=N)N)C(=O)N[C@@H](C)C(=O)N[C@@H](CCC(N)=O)C(=O)N[C@@H](CC(=O)O)C(=O)N[C@@H](Cc1ccccc1)C(=O)N[C@H](C(=O)N[C@@H](CCC(=O)O)C(=O)N[C@@H](Cc1c[nH]c2ccccc12)C(=O)N[C@@H](CC(C)C)C(=O)N[C@@H](CCCCN)C(=O)N[C@@H](C)C(=O)NCC(=O)NCC(=O)N1CCC[C@H]1C(=O)N[C@@H](CO)C(=O)N[C@@H](CO)C(=O)NCC(=O)N[C@@H](C)C(=O)N1CCC[C@H]1C(=O)N1CCC[C@H]1C(=O)N1CCC[C@H]1C(=O)N[C@@H](CO)C(N)=O)[C@@H](C)CC)C(=O)O [compound 4] | 5 | 5 | 3590 | 2.8 | > 815 | > 910 | 4 | 4 |
| CCCCCCCCCCCCCCCC(=O)N[C@@H](CCC(=O)NCCCC[C@H](NC(=O)[C@H](CCC(N)=O)NC(=O)[C@H](CCCCN)NC(=O)[C@H](CO)NC(=O)[C@H](CC(C)C)NC(=O)[C@H](CC(=O)O)NC(=O)[C@H](CO)NC(=O)[C@@H](NC(=O)[C@H](Cc1ccccc1)NC(=O)[C@@H](NC(=O)CNC(=O)[C@H](CCC(N)=O)NC(=O)[C@@H](CO)NC(=O)[C@@H](N)Cc1c[nH]cn1)[C@@H](C)O)[C@@H](C)O)C(=O)N[C@@H](CCC(=O)O)C(=O)N[C@@H](CO)C(=O)N[C@@H](CCCCN)C(=O)N[C@@H](C)C(=O)N[C@@H](C)C(=O)N[C@@H](CCC(N)=O)C(=O)N[C@@H](CC(=O)O)C(=O)N[C@@H](Cc1ccccc1)C(=O)N[C@H](C(=O)N[C@@H](CCC(=O)O)C(=O)N[C@@H](Cc1c[nH]c2ccccc12)C(=O)N[C@@H](CC(C)C)C(=O)N[C@@H](CCCCN)C(=O)N[C@@H](C)C(=O)NCC(=O)NCC(=O)N1CCC[C@H]1C(=O)N[C@@H](CO)C(=O)N[C@@H](CO)C(=O)NCC(=O)N[C@@H](C)C(=O)N1CCC[C@H]1C(=O)N1CCC[C@H]1C(=O)N1CCC[C@H]1C(=O)N[C@@H](CO)C(N)=O)[C@@H](C)CC)C(=O)O [compound 24] | 1.9 | 2 | 6560 | 3.7 | > 1000 | > 1000 | 9.4 | 9.8 |
| CCCCCCCCCCCCCCCC(=O)N[C@@H](CCC(=O)NCCCC[C@H](NC(=O)[C@H](CCC(N)=O)NC(=O)[C@H](CCCCN)NC(=O)[C@H](CO)NC(=O)[C@H](CC(C)C)NC(=O)[C@H](CC(=O)O)NC(=O)[C@H](CO)NC(=O)[C@@H](NC(=O)[C@H](Cc1ccccc1)NC(=O)[C@@H](NC(=O)CNC(=O)[C@H](CCC(N)=O)NC(=O)[C@@H](CO)NC(=O)[C@@H](N)Cc1c[nH]cn1)[C@@H](C)O)[C@@H](C)O)C(=O)N[C@@H](CCC(=O)O)C(=O)N[C@@H](CO)C(=O)N[C@@H](CCC(N)=O)C(=O)N[C@@H](C)C(=O)N[C@@H](C)C(=O)N[C@@H](CCC(N)=O)C(=O)N[C@@H](CC(=O)O)C(=O)N[C@@H](Cc1ccccc1)C(=O)N[C@H](C(=O)N[C@@H](CCC(=O)O)C(=O)N[C@@H](Cc1c[nH]c2ccccc12)C(=O)N[C@@H](CC(C)C)C(=O)N[C@@H](CCCCN)C(=O)N[C@@H](C)C(=O)NCC(=O)NCC(=O)N1CCC[C@H]1C(=O)N[C@@H](CO)C(=O)N[C@@H](CO)C(=O)NCC(=O)N[C@@H](C)C(=O)N1CCC[C@H]1C(=O)N1CCC[C@H]1C(=O)N1CCC[C@H]1C(=O)N[C@@H](CO)C(N)=O)[C@@H](C)CC)C(=O)O [compound 35] | 1.5 |  | 4910 | 3.6 | > 1000 | > 1000 | 14.2 |  |
| CCCCCCCCCCCCCCCC(=O)N[C@@H](CCC(=O)NCCCC[C@H](NC(=O)[C@H](CCC(N)=O)NC(=O)[C@H](CCCCN)NC(=O)[C@H](CO)NC(=O)[C@H](CC(C)C)NC(=O)[C@H](CC(=O)O)NC(=O)[C@H](CO)NC(=O)[C@@H](NC(=O)[C@H](Cc1ccccc1)NC(=O)[C@@H](NC(=O)CNC(=O)[C@H](CCC(N)=O)NC(=O)C(C)(C)NC(=O)[C@@H](N)Cc1c[nH]cn1)[C@@H](C)O)[C@@H](C)O)C(=O)N[C@@H](CCC(=O)O)C(=O)N[C@@H](CO)C(=O)N[C@@H](CCC(N)=O)C(=O)N[C@@H](C)C(=O)N[C@@H](C)C(=O)N[C@@H](CCC(N)=O)C(=O)N[C@@H](CC(=O)O)C(=O)N[C@@H](Cc1ccccc1)C(=O)N[C@H](C(=O)N[C@@H](CCC(=O)O)C(=O)N[C@@H](Cc1c[nH]c2ccccc12)C(=O)N[C@@H](CC(C)C)C(=O)N[C@@H](CCCCN)C(=O)N[C@@H](C)C(=O)NCC(=O)NCC(=O)N1CCC[C@H]1C(=O)N[C@@H](CO)C(=O)N[C@@H](CO)C(=O)NCC(=O)N[C@@H](C)C(=O)N1CCC[C@H]1C(=O)N1CCC[C@H]1C(=O)N1CCC[C@H]1C(=O)N[C@@H](CO)C(N)=O)[C@@H](C)CC)C(=O)O [compound 36] | 2.7 |  | 5260 | 3.8 | > 1000 | > 1000 | 45.9 |  |
| CCCCCCCCCCCCCCCC(=O)N[C@@H](CCC(=O)NCCCC[C@H](NC(=O)[C@H](CCC(N)=O)NC(=O)[C@H](CCCCN)NC(=O)[C@H](CO)NC(=O)[C@H](CC(C)C)NC(=O)[C@H](CC(=O)O)NC(=O)[C@H](CO)NC(=O)[C@@H](NC(=O)[C@H](Cc1ccccc1)NC(=O)[C@@H](NC(=O)CNC(=O)[C@H](CCC(N)=O)NC(=O)[C@@H](CO)NC(=O)[C@@H](N)Cc1c[nH]cn1)[C@@H](C)O)[C@@H](C)O)C(=O)N[C@@H](CCC(=O)O)C(=O)N[C@@H](CO)C(=O)N[C@@H](CCCNC(=N)N)C(=O)N[C@@H](C)C(=O)N[C@@H](C)C(=O)N[C@@H](CCC(N)=O)C(=O)N[C@@H](CC(=O)O)C(=O)N[C@@H](Cc1ccccc1)C(=O)N[C@H](C(=O)N[C@@H](CCC(=O)O)C(=O)N[C@@H](Cc1c[nH]c2ccccc12)C(=O)N[C@@H](CC(C)C)C(=O)N[C@@H](CCCCN)C(=O)N[C@@H](C)C(=O)NCC(=O)NCC(=O)N1CCC[C@H]1C(=O)N[C@@H](CO)C(=O)N[C@@H](CO)C(=O)NCC(=O)N[C@@H](C)C(=O)N1CCC[C@H]1C(=O)N1CCC[C@H]1C(=O)N1CCC[C@H]1C(=O)N[C@@H](CO)C(N)=O)[C@@H](C)CC)C(=O)O [compound 44] | 2.7 |  | 2450 | 3.4 | > 1000 | > 1000 | 12 |  |
| CCCCCCCCCCCCCCCC(=O)N[C@@H](CCC(=O)NCCCC[C@H](NC(=O)[C@H](CCC(N)=O)NC(=O)[C@H](CCCCN)NC(=O)[C@H](CO)NC(=O)[C@H](CC(C)C)NC(=O)[C@H](CC(=O)O)NC(=O)[C@H](CO)NC(=O)[C@@H](NC(=O)[C@H](Cc1ccccc1)NC(=O)[C@@H](NC(=O)CNC(=O)[C@H](CCC(N)=O)NC(=O)[C@@H](CO)NC(=O)[C@@H](N)Cc1c[nH]cn1)[C@@H](C)O)[C@@H](C)O)C(=O)N[C@@H](CC(=O)O)C(=O)N[C@@H](CO)C(=O)N[C@@H](CCCNC(=N)N)C(=O)N[C@@H](CCCNC(=N)N)C(=O)N[C@@H](C)C(=O)N[C@@H](CCC(N)=O)C(=O)N[C@@H](CC(=O)O)C(=O)N[C@@H](Cc1ccccc1)C(=O)N[C@H](C(=O)N[C@@H](CCC(=O)O)C(=O)N[C@@H](Cc1c[nH]c2ccccc12)C(=O)N[C@@H](CC(C)C)C(=O)N[C@@H](CCCCN)C(=O)N[C@@H](CC(N)=O)C(=O)NCC(=O)NCC(=O)N1CCC[C@H]1C(=O)N[C@@H](CO)C(=O)N[C@@H](CO)C(=O)NCC(=O)N[C@@H](C)C(=O)N1CCC[C@H]1C(=O)N1CCC[C@H]1C(=O)N1CCC[C@H]1C(=O)N[C@@H](CO)C(N)=O)[C@@H](C)CC)C(=O)O [compound 97] | 3.5 | 6.8 | 2000 | 3.2 | > 2000 | > 2000 | 1 | 1.2 |

Read-outs that look alike come from different tables or passages of the source.
